{"source": "PubChem BioAssay AID651647", "about": "(Sanford-Burnham Center for Chemical Genomics, 2012)", "note": "Only a part is listed here, and it is no random draw. Some salts or complexes appear as unconnected parts, following the source record. Activity calls are given as the source filed them.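 How the source made its calls: active means GFP/RFP ratio change of at least 30% with cell ATP level not reduced by more than half and red fluorescence within 50% of control; inactive means the rest, inconclusive results apart.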", "data": [{"biological_target": "Matrix metalloproteinase-14 (Homo sapiens) (UniProt P50281)", "test": "blockers of MT1-MMP proenzyme processing, primary screen, HT1080 RFP-PRO-GFP cells, GFP/RFP fluorescence (AID 651647)", "settings": "overnight, at 20 µM, stronger effect = higher value, percent of plate control window, DMSO zero", "in_short": "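Test system: HT1080 cells expressing an RFP-PRO-GFP fluorescent reporter construct / Compound dosing: single-point 20 µM compound, 1% DMSO / Schedule: cells overnight before dosing, compound overnight, 37 °C, 5% CO2 / Evaluation: GFP/RFP fluorescence ratio / Control set: DMSO and RFP-L50D-GFP cell wells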", "values": [{"smiles": "O=[N+]([O-])c1cc([N+](=O)[O-])c(C(F)(F)F)c([N+](=O)[O-])c1O", "GFP/RFP ratio change": "inactive: 2.54%"}, {"smiles": "Cc1ccccc1NP(C)(=O)Nc1ccccc1C", "GFP/RFP ratio change": "inactive: 0.879%"}, {"smiles": "CP(=O)(Nc1ccc2c(c1)OCCO2)Oc1ccccc1", "note": "(stereo not drawn)", "GFP/RFP ratio change": "inactive: -2.61%"}, {"smiles": "CCOP(C)(=S)SCC(=O)NC(C)(CC)C(=O)O", "note": "(stereo not drawn)", "GFP/RFP ratio change": "inactive: 2.34%"}, {"smiles": "CP(=O)(Nc1ccc(SC(F)(F)F)cc1)Oc1ccc(F)cc1", "note": "(stereo not drawn)", "GFP/RFP ratio change": "inactive: 6.38%"}, {"smiles": "Cc1c(C(c2ccc3c(c2)OCO3)c2c(C)n(C)n(-c3ccccc3)c2=O)c(=O)n(-c2ccccc2)n1C.O=[N+]([O-])c1cc([N+](=O)[O-])c(O)c([N+](=O)[O-])c1", "GFP/RFP ratio change": "inactive: 2.02%"}, {"smiles": "Cc1cc(-c2cccc3ccccc23)c(C)cn1.O=[N+]([O-])c1cc([N+](=O)[O-])c(O)c([N+](=O)[O-])c1", "GFP/RFP ratio change": "inactive: -5.17%"}, {"smiles": "O=[N+]([O-])c1cc([N+](=O)[O-])c(NCC2CCS(=O)(=O)C2)c([N+](=O)[O-])c1", "note": "(stereo not drawn)", "GFP/RFP ratio change": "inactive: -13.4%"}, {"smiles": "O=[N+]([O-])c1ccc(OP2(=O)COCCO2)cc1", "note": "(stereo not drawn)", "GFP/RFP ratio change": "inactive: 2%"}, {"smiles": "COc1ccc(NP(C)(=O)Oc2ccccc2OC)cc1", "note": "(stereo not drawn)", "GFP/RFP ratio change": "inactive: 1.17%"}, {"smiles": "CN(C)CCOC(=O)C(O)(c1ccccc1)C1CCCCC1", "note": "(stereo not drawn)", "GFP/RFP ratio change": "inactive: -5.09%"}, {"smiles": "COc1ccc(OP(C)(=O)Nc2cccc(Br)c2)cc1", "note": "(stereo not drawn)", "GFP/RFP ratio change": "inactive: 2.54%"}, {"smiles": "CCCCCOc1ccc(NP(C)(=O)Oc2ccc(Cl)cc2Cl)cc1", "note": "(stereo not drawn)", "GFP/RFP ratio change": "inactive: -0.69%"}, {"smiles": "O=[N+]([O-])c1cc([N+](=O)[O-])c(OC2CCCCC2O)c([N+](=O)[O-])c1", "note": "(stereo not drawn)", "GFP/RFP ratio change": "inactive: 6.33%"}, {"smiles": "CP(=O)(Nc1ccccc1)Oc1ccc(F)cc1", "note": "(stereo not drawn)", "GFP/RFP ratio change": "inactive: -4.07%"}, {"smiles": "CCN(CC)CCCOC(=O)C(O)(c1ccccc1)C1CCCCC1", "note": "(stereo not drawn)", "GFP/RFP ratio change": "inactive: -0.55%"}, {"smiles": "Cc1c([N+](=O)[O-])cc([N+](=O)[O-])c(Br)c1[N+](=O)[O-]", "GFP/RFP ratio change": "inactive: -2.05%"}, {"smiles": "COc1ccc(OP(C)(=O)Nc2ccc(SC(F)(F)F)cc2)cc1", "note": "(stereo not drawn)", "GFP/RFP ratio change": "inactive: 0.466%"}, {"smiles": "CCOC(=O)c1ccc(NP(C)(=O)Oc2ccc(F)cc2)cc1", "note": "(stereo not drawn)", "GFP/RFP ratio change": "inactive: 2.81%"}, {"smiles": "CCN(CC)CCCNc1ccccc1[N+](=O)[O-].O=[N+]([O-])c1cc([N+](=O)[O-])c(O)c([N+](=O)[O-])c1", "GFP/RFP ratio change": "inactive: 12.6%"}, {"smiles": "COc1ccc2c(c1O)-c1c(O)c(OC)cc3c1[C@H](C2)[N+](C)(C)CC3.O=[N+]([O-])c1cc([N+](=O)[O-])c([O-])c([N+](=O)[O-])c1[O-]", "GFP/RFP ratio change": "inactive: 2.13%"}, {"smiles": "O=C(OCCN1CCN(CCOCc2ccccc2)CC1)C(O)(c1ccccc1)c1ccccc1", "GFP/RFP ratio change": "inactive: 3.42%"}, {"smiles": "CC(C)c1ccc(OP(C)(=O)Nc2ccc(SC(F)(F)F)cc2)cc1", "note": "(stereo not drawn)", "GFP/RFP ratio change": "inactive: 2.86%"}, {"smiles": "CP(=O)(Nc1ccccc1F)Oc1ccccc1", "note": "(stereo not drawn)", "GFP/RFP ratio change": "inactive: -1.1%"}, {"smiles": "O=[N+]([O-])c1cc([N+](=O)[O-])c(Nc2ccc(Cl)cc2)c([N+](=O)[O-])c1", "GFP/RFP ratio change": "inactive: 6.48%"}, {"smiles": "CCc1ccc(OP(C)(=O)O)cc1", "GFP/RFP ratio change": "inactive: 0.773%"}, {"smiles": "CP(=O)(Nc1ccccn1)Oc1ccccc1", "note": "(stereo not drawn)", "GFP/RFP ratio change": "inactive: -3.65%"}, {"smiles": "COc1ccccc1OP(C)(=O)Nc1ccc(C)cc1C", "note": "(stereo not drawn)", "GFP/RFP ratio change": "inactive: 5.87%"}, {"smiles": "O=[N+]([O-])c1cc([N+](=O)[O-])c(Nc2ccccn2)c([N+](=O)[O-])c1", "GFP/RFP ratio change": "inactive: 22.2%"}, {"smiles": "Cc1c(NP(C)(=O)Oc2ccc(C(C)C)cc2)c(=O)n(-c2ccccc2)n1C", "note": "(stereo not drawn)", "GFP/RFP ratio change": "inactive: -1.83%"}, {"smiles": "CN(C)CCOC(=O)C(O)(c1ccccc1)C1CCCC1", "note": "(stereo not drawn)", "GFP/RFP ratio change": "inactive: 7.15%"}, {"smiles": "COc1ccc(OP(C)(=O)Nc2ccccn2)cc1", "note": "(stereo not drawn)", "GFP/RFP ratio change": "inactive: -0.103%"}, {"smiles": "COc1ccccc1OP(C)(=O)Nc1ccc(Br)cc1", "note": "(stereo not drawn)", "GFP/RFP ratio change": "inactive: -1.38%"}, {"smiles": "CP(=O)(OCCOc1ccccc1)OCCOc1ccccc1", "GFP/RFP ratio change": "inactive: -1.35%"}, {"smiles": "CCCCCCCCCCCCCCCC1C[N+](C)(C)CCOP(C)(=O)O1", "note": "(stereo not drawn)", "GFP/RFP ratio change": "inactive: -9.56%"}, {"smiles": "CP(=O)(Nc1ccc(Cl)cc1Cl)Oc1ccccc1", "note": "(stereo not drawn)", "GFP/RFP ratio change": "inactive: 0.573%"}, {"smiles": "COc1ccc(OP(C)(=O)Nc2ccccc2Br)cc1", "note": "(stereo not drawn)", "GFP/RFP ratio change": "inactive: -0.145%"}, {"smiles": "COc1ccccc1OP(C)(=O)Nc1ccc(C)c(C)c1", "note": "(stereo not drawn)", "GFP/RFP ratio change": "inactive: -0.186%"}, {"smiles": "O=C1C(O)=C([N+](=O)[O-])C(=O)C(O)=C1[N+](=O)[O-]", "GFP/RFP ratio change": "inactive: 2.96%"}, {"smiles": "Cc1cc(C)cc(OP(C)(=O)Nc2cccc(C(F)(F)F)c2)c1", "note": "(stereo not drawn)", "GFP/RFP ratio change": "inactive: 2.82%"}, {"smiles": "CP(=O)(OC12CC3CC(CC(C3)C1)C2)OC12CC3CC(CC(C3)C1)C2", "GFP/RFP ratio change": "inactive: -8.48%"}, {"smiles": "CCOC(=O)c1ccc(NP(C)(=O)Oc2ccc(Cl)cc2)cc1", "note": "(stereo not drawn)", "GFP/RFP ratio change": "inactive: -0.635%"}, {"smiles": "CP(=O)(Nc1ccc(Cl)cc1)Oc1ccc(F)cc1", "note": "(stereo not drawn)", "GFP/RFP ratio change": "inactive: 1.25%"}, {"smiles": "CC(C)(C)c1ccc(OP(C)(=O)O)cc1", "GFP/RFP ratio change": "inactive: -0.725%"}, {"smiles": "COc1ccccc1OP(C)(=O)Nc1ccccc1Br", "note": "(stereo not drawn)", "GFP/RFP ratio change": "inactive: 0.0357%"}, {"smiles": "CP(=O)(Oc1ccccc1)N1CCOC1=O", "note": "(stereo not drawn)", "GFP/RFP ratio change": "inactive: -3.43%"}, {"smiles": "CCc1ccc(OP(C)(=O)Nc2cccnc2)cc1", "note": "(stereo not drawn)", "GFP/RFP ratio change": "inactive: -1.76%"}, {"smiles": "COc1ccccc1OP(C)(=O)Nc1c(C)n(C)n(-c2ccccc2)c1=O", "note": "(stereo not drawn)", "GFP/RFP ratio change": "inactive: -5.06%"}]}]}
